{"source": "patent US11744889B2", "about": "“Skin microenvironment targeted delivery for promoting immune and other responses” (University of Pittsburgh—Of the Commonwealth System of …, priority 2016, dated 2023)", "target": "T1, NK1R (Mus musculus, UniProt P30548)", "T1 construct": "from tissue", "experiment": "Histology of skin and skin draining lymph nodes of B6-WT mice sensitized with DNCB with or without SarSP", "details": "in vivo", "from_the_text": "FIGS. 45A-45D illustrate inflammatory responses observed in cross sections of abdominal skin and skin draining lymph nodes of B6-WT mice sensitized or not (controls) with DNCB in the presence or not of the NK1R agonist SarSP. […] Mice treated with DNCB illustrate moderate skin inflammation composed of PMN cells (inset) distributed mainly in the papillary dermis (arrows).\nFIG. 45B illustrates staining of skin sections with TB increased inflammatory infiltrate correlates with the degree of MC degranulation, insets.\n(A & C: H and E, 200×; Insets, 1,000×; B & D: TB, 200×; Insets 1,000×; NT refers to non-treated mice.)\nThe effect of different treatments in B6-WT mice was compared with n=6/experimental group. […] The inflammatory infiltrate was composed of leukocytes including polimorphonuclear neutrophils (PMN) and eosinophils as shown in the inset of FIG. 45A."}
{"smiles": "O=[N+]([O-])c1ccc(Cl)c([N+](=O)[O-])c1", "note": "[DNCB, 2,4-Dinitrochlorobenzene]", "values": [{"measurement": "number of MC in draining lymph nodes", "value": "induced an increased number of MC"}]}
